Paper PMC8413131 (Oncogene, 2021)

Test system: wild-type AR (WT-AR)
Assay: PSA luciferase reporter, WT-AR in 293 cells
Type: cell-based
Details: FBS conditions, 16 hours, Fig.2G

**Q.** How did the WT-AR transcriptional activity turn out when `CNC(=O)c1ccc(N2C(=S)N(c3cnc(C#N)c(C(F)(F)F)c3)C(=O)C23CCC3)cc1F` [Apal, apalutamide] was run?
**A.** Its WT-AR transcriptional activity is “suppress”.
